Assay results from PMC5818262 (ACS chemical biology, 2012).

System: CC(=O)O
Test: purified protein

Substance | Km [µM] | kcat [s⁻¹] | kcat/Km [M⁻¹ s⁻¹]
ACS (E. coli) (Escherichia coli K-12) | 6 ± 1 | 1.04 | 170000
ACS (S. cattleya) (Streptantibioticus cattleyicolor NRRL 8057 = DSM 46488) | 9 ± 1 | 40 | 4.4e+06
